Measured values reported in patent EP2505659A1, “Methods for the identification of dioxygenase interacting molecules and for the purification of dioxygenase proteins” (CELLZOME AG, priority 2011, dated 2012).

By UniProt entry, the sequences of proteins in these tests, tags left out. Where a name states a change or a piece, a line headed by the entry shows the natural chain unless it says otherwise.
UniProt Q6NS38: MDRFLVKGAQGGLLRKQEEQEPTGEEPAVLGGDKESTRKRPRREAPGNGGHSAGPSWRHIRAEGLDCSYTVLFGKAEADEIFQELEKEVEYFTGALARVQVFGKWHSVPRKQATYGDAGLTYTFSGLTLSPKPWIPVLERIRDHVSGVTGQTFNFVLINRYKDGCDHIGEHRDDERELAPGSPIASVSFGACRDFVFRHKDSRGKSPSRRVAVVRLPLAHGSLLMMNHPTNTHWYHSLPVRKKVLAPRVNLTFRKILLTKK
UniProt Q6P6C2: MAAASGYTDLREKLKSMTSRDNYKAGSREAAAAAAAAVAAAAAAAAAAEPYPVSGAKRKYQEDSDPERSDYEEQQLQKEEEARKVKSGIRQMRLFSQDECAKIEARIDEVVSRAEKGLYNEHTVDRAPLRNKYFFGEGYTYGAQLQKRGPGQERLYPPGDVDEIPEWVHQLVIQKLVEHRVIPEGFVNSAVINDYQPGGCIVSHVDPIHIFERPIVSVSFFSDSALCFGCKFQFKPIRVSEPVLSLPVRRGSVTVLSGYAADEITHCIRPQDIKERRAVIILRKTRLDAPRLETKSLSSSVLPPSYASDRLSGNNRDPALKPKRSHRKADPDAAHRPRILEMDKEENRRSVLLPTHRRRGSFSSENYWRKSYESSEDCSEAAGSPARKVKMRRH

Assays:
ALKBH2 = ALKBH2 (Homo sapiens, UniProt Q6NS38); assay: biochemical; details: read-out: Fold change versus DMSO control, ALKBH2, 100 µM free compound A
Text: (§1) The proteins bound to the immobilized compound were eluted with detergent-containing buffer and separated on a SDS-polyacryamide gel. […] Table 4: Compound treatment and TMT-labeling of cell samples
(§2) Jurkat cells (ATCC number TIB-152) were either obtained from an external supplier (CIL SA, Mons, Belgium) or grown in one litre Spinner flasks (Integra Biosciences, #182101) in suspension in RPMI 1640 medium (Invitrogen, #21875-034) supplemented with 10% Fetal Bovine Serum (Invitrogen, #10270-106) at a density between 0.2 x 10^6 and 1.0 x 10^6 cells/ml. Cells were harvested by centrifugation, washed once with 1 x PBS buffer (Invitrogen, #14190-094) and cell pellets were frozen in liquid nitrogen and subsequently stored at -80°C.
(§3) Source of HL-60 cells: HL-60 cell line (DSMZ, Braunschweig, Germany; DSMZ number ACC3). K562 cells were also purchased from DSMZ (Braunschweig, Germany).
(§4) Extracts of nuclei were prepared according to the Dignam protocol (Dignam et al., 1983. Nucleic Acids Res. 11 (5):1475-89).
(§5) The TMT reagents are a set of multiplexed, amine-specific, stable isotope reagents that can label peptides on amino groups in up to six different biological samples enabling simultaneous identification and quantitation of peptides. The TMT reagents were used according to instructions provided by the manufacturer. The samples were resuspended in 10 µl 50 mM TEAB solution, pH 8.5 and 10 µl acetonitril were added. The TMT reagent was dissolved in acetonitrile to a final concentration of 24 mM and 10 µl of reagent solution were added to the sample. The labeling reaction was performed at room temperature for one hour on a horizontal shaker and stopped by adding 5 µl of 100 mM TEAB and 100 mM glycine in water. The labeled samples were then combined, dried in a vacuum centrifuge and resuspended in 60% 200mM TEAB / 40% acetonitril.
(§6) Table 5: Peptide elution off the LC system

ALKBH5 = ALKBH5 (Homo sapiens, UniProt Q6P6C2); assay: biochemical; details: read-out: Fold change versus DMSO control, ALKBH5, 100 µM free compound A
Text: as §1, §2, §3, §4, §5, §6

PLOD3 = biological target: T1, PLOD3 (Homo sapiens, UniProt O60568); assay: Bead competition binding assay, immobilized compound A, K-562, HL-60 and Jurkat nuclear lysates; design: capturing and identification of dioxygenases from nuclear protein extracts; endogenous in cells; details: 100 µM free compound A, HL-60 nuclear lysate, read-out: Fold change versus DMSO control
T1 sequence (O60568 25-738): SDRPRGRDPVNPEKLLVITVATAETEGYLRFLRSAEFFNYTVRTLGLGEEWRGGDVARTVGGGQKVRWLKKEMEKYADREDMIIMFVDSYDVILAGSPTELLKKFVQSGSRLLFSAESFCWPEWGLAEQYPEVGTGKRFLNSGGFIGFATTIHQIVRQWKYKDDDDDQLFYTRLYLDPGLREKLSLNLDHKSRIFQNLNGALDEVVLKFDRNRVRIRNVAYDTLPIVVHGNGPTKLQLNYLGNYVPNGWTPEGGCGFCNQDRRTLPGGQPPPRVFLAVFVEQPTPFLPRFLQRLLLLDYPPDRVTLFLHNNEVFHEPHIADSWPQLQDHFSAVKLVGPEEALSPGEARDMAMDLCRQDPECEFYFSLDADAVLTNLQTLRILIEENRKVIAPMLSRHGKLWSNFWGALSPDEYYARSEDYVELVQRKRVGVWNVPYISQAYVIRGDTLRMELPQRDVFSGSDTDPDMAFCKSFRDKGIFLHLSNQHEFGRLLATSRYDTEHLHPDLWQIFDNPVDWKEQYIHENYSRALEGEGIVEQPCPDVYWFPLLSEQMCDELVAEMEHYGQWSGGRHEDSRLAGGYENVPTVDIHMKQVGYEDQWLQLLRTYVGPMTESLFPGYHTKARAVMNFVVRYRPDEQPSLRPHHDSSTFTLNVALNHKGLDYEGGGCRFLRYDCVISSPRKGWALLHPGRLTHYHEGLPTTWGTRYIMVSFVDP
Text: K562 cells were also purchased from DSMZ (Braunschweig, Germany).
as §6
Seventeen different dioxygenases were identified.

C17ORF101 = biological target: T2, C17ORF101 (Homo sapiens, UniProt Q6PK18); assay: as above; design: capturing and identification of dioxygenases from nuclear protein extracts; endogenous in cells
T2 sequence (Q6PK18 1-331 isoform Q6PK18-2): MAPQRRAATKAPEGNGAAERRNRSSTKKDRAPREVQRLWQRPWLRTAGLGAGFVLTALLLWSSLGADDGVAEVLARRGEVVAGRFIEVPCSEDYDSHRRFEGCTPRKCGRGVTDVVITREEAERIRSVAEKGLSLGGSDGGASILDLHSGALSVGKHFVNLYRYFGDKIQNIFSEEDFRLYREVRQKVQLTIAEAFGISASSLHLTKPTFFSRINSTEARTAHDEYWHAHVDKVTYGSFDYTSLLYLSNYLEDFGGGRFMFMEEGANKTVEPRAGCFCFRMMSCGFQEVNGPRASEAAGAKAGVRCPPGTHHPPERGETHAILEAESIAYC
Text: as §1, §2, §3, §4
The TMT reagents are a set of multiplexed, amine-specific, stable isotope reagents that can label peptides on amino groups in up to six different biological samples enabling simultaneous identification and quantitation of peptides. The TMT reagents were used according to instructions provided by the manufacturer. […]

## O=C(O)CNC(=O)C1C(=O)OC2(CCNCC2)OC1=O [compound A, 2-(2,4-dioxo-1,5-dioxa-9-azaspiro[5.5]undecane-3-carboxamido)acetic acid hydrochloride]
ALKBH2; HL-60 nuclear lysate
  remaining activity at 100 µM: 178%
ALKBH2; Jurkat nuclear lysate
  remaining activity at 100 µM: 108%
ALKBH2; K-562 nuclear lysate
  remaining activity at 100 µM: 85%
ALKBH5; HL-60 nuclear lysate
  remaining activity at 100 µM: 78%
ALKBH5; Jurkat nuclear lysate
  remaining activity at 100 µM: 56%
ALKBH5; K-562 nuclear lysate
  remaining activity at 100 µM: 44%
PLOD3
  remaining binding at 100 µM: 112%
C17ORF101; read-out: Fold change versus DMSO control
  remaining binding at 100 µM: 42%
C17ORF101; read-out: Fold change versus DMSO control, C17ORF101, 100 µM free compound A, Jurkat nuclear lysate
  remaining binding at 100 µM: 41%

Where a name gives a salt, the structure may show the parent alone. Read-outs that look alike come from different tables or passages of the source.
